The values below are quoted from earlier work in patent CN114831954A, “一种左氧氟沙星片” (priority 2022, dated 2022).

For the data set the following is noted: oral, background statement.

As for `CC1COc2c(N3CCN(C)CC3)c(F)cc3c(=O)c(C(=O)O)cn1c23` (stereo not shown) [氧氟沙星], the “effect of food intake on bioavailability” value is “生物利用度受进食影响很小”.
